# In the library only some 2.1% were active in any assay of this set; here they are far more common.
# ERp5 block: inhibitors of ERp5-driven insulin aggregation, primary screen, biochemical, turbidity, absorbance 650 nm, single point. Protein disulfide-isomerase A6 (Homo sapiens), Q15084. 90 min. inhibition, % at 9.99 µM. 350,000 tested, 0.05% active. AID 651711, 2012;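 active means mean replicate inhibition above about 25%, with every replicate also reaching it, limit read from the data, passing the limit was not always enough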
# SMARCA2 activ: SMARCA2 (BRM) function activators, primary screen, cell-based, luminescence, high throughput; activation, % at 9.1 µM; MG213 cells, MMTV-luciferase reporter, dexamethasone, overnight; 370,000 tested, 1% active; in the data active means activation above about 7.8%;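 further: 0% = vehicle wells and 100% = reference activator wells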
# Rev-erbA mod: modulators of Rev-erb alpha DNA binding, primary screen, biochemical, FITC-DNA, fluorescence polarization, uHTS | Nuclear receptor subfamily 1 group D member 1 (Homo sapiens), P20393 | Rev-erbα–FITC-DNA binding, 90 min | activity, % at 10 µM | 370,000 tested, 0.79% active;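 active means activity above about 14%, limit read from the data; passing the limit was not always enough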;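 further: 0% = DMSO wells with 35 nM protein and 100% = DMSO wells with 750 nM protein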
# PDI inh: inhibitors of human PDI, primary screen, biochemical, turbidity, single point, plate reader; 350,000 tested, 0.052% active; PDI insulin aggregation turbidity, A650, 90 min; inhibition, % at 10 µM; AID 588391, 2011; Protein disulfide-isomerase (Homo sapiens), P07237;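 active means mean inhibition across replicates of 30% or more, whatever share of single replicates reach that level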
# INS-1E GSIS act: GLuc luminescence reporter in INS-1E cells, primary screen for activators of glucose-dependent secretion of insulin; 370,000 tested, 0.61% active; INS-1E GLuc reporter insulin secretion, 2-3 h; activation, % at 16.6 µM;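 active means lowest replicate activation of at least 40%, so every replicate reaches that level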;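 further: 0% = median of neutral control wells and 100% = median of IBMX positive control wells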
# UUG fidelity: modulators of yeast start codon fidelity, primary screen, whole organism, S. cerevisiae, single point, plate reader | S. cerevisiae UUG-firefly luciferase reporter, luminescence/redox ratio | activity score, % at 18.7 µM | hit rate 0.13% among 350,000;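 active = replicate mean at a twofold rise or more, about +100% in these data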;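 note: firefly luciferase made from a UUG start codon reports start codon fidelity; reporter light over untreated wells divided by growth signal over untreated wells; some hits fall short of that in this replicate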
# * marks the source's active call; other numbers are inactive results; · = no result.
# Preview, four compounds:
SMILES,ERp5 block,SMARCA2 activ,Rev-erbA mod,PDI inh,INS-1E GSIS act,UUG fidelity
C[C@@H]1CN([C@@H](C)CO)C(=O)Cc2cc(NC(=O)Cc3ccccc3)ccc2O[C@@H]1CN(C)C(=O)Nc1ccc(C(F)(F)F)cc1,36.6*,·,·,·,-41.5,-1.2
C[C@@H]1CN([C@@H](C)CO)C(=O)Cc2cc(NS(=O)(=O)c3cccs3)ccc2O[C@H]1CN(C)C(=O)Nc1ccc(C(F)(F)F)cc1,47.2*,·,·,·,-14.4,6.2
CCCC(=O)Nc1ccc2c(c1)OC[C@H](C)N(CC1CCCC1)C[C@H](C)[C@H](OC)CN(C)C2=O,-6.5,·,·,·,-4.3,-8.2
CN1C(=O)c2cc(NC(=O)NC3CCCC3)ccc2OC[C@H]2O[C@@H](CC(=O)O)CC[C@@H]21,-5.2,·,·,·,-1.2,-1.3

# The list itself, repeating the preview:
SMILES,ERp5 block,SMARCA2 activ,Rev-erbA mod,PDI inh,INS-1E GSIS act,UUG fidelity
C[C@@H]1CN([C@@H](C)CO)C(=O)Cc2cc(NC(=O)Cc3ccccc3)ccc2O[C@@H]1CN(C)C(=O)Nc1ccc(C(F)(F)F)cc1,36.6*,·,·,·,-41.5,-1.2
C[C@@H]1CN([C@@H](C)CO)C(=O)Cc2cc(NS(=O)(=O)c3cccs3)ccc2O[C@H]1CN(C)C(=O)Nc1ccc(C(F)(F)F)cc1,47.2*,·,·,·,-14.4,6.2
CCCC(=O)Nc1ccc2c(c1)OC[C@H](C)N(CC1CCCC1)C[C@H](C)[C@H](OC)CN(C)C2=O,-6.5,·,·,·,-4.3,-8.2
CN1C(=O)c2cc(NC(=O)NC3CCCC3)ccc2OC[C@H]2O[C@@H](CC(=O)O)CC[C@@H]21,-5.2,·,·,·,-1.2,-1.3
COc1ccccc1CCn1cnc(-c2ccccc2F)c1CC(C)C,2.3,-5.8,5.2,·,41.9*,·
COc1ccccc1CCn1cnc(-c2ccc(OC)c(OC)c2)c1C(C)C,-5.3,-3.6,11.2,·,-11.1,·
CCCCc1c(Cc2cccc(F)c2)ncn1CCc1ccccc1OC,-9.9,-4.6,-2.9,·,123.5*,·
CCCCc1c(-c2cccc(OC)c2)ncn1CCc1ccccc1OC,-10.8,-3.7,6.7,·,80.0*,·
CCCCc1c(-c2ccc(OC)c(OC)c2)ncn1CCc1ccccc1OC,4.8,-8.7,8.4,·,-24.8,·
COc1ccccc1CCn1cnc(-c2cccc(F)c2)c1C(C)C,2.7,-6.7,-5.8,·,64.2*,·
O=C(NC[C@H]1CC[C@@H]2[C@@H](CN2S(=O)(=O)c2ccccc2[N+](=O)[O-])O1)C1CC1,-4.0,·,·,·,·,·
CCCCCc1c(-c2ccc(F)cc2F)ncn1CCc1ccccc1OC,-1.6,-2.4,10.9,·,104.2*,·
CCCCc1c(-c2ccc(F)cc2F)ncn1CCc1ccccc1OC,1.5,-6.2,0.4,·,119.6*,·
COc1ccccc1CCn1cnc(-c2ccc(F)cc2F)c1CC(C)C,-0.8,-7.0,8.1,·,·,·
O=C(CCN1CCCCC1)NCC[C@H]1CC[C@H](NC(=O)Cc2cccnc2)[C@H](CO)O1,-0.2,·,·,·,-3.5,107.2*
O=C(Cc1ccncc1)NCC[C@@H]1CC[C@H](NC(=O)C2CCCC2)[C@@H](CO)O1,-3.3,·,·,·,4.0,-3.3
O=C(Cc1ccncc1)NCC[C@H]1CC[C@H](NC(=O)C2CCCC2)[C@H](CO)O1,-7.8,·,·,·,2.2,196.3*
O=C(NCC[C@H]1CC[C@H](NC(=O)c2cccnc2)[C@H](CO)O1)Nc1ccc(F)cc1,-3.3,·,·,·,-4.3,203.1*
C[C@@H]1CN([C@H](C)CO)C(=O)Cc2cc(NC(=O)Nc3ccc(C(F)(F)F)cc3)ccc2O[C@H]1CN(C)C(=O)Nc1cccc2ccccc12,-8.0,·,·,·,6.3,-6.6
COc1ccc(S(=O)(=O)N[C@H]2C=C[C@@H](CC(=O)NCCc3ccncc3)O[C@@H]2CO)cc1,1.8,·,·,·,3.0,·
Cn1c(=O)c2[nH]c(SCc3ccccn3)nc2n(C)c1=S,5.7,2.5,-1.9,·,181.0*,·
CCSc1nc2c([nH]1)c(=O)n(C)c(=S)n2C,-2.1,-2.6,2.5,14.6,6.7,-10.1
Cc1ccnc(NS(=O)(=O)c2ccc(NC(=O)CCc3ccccc3)cc2)n1,-0.1,-1.8,-3.9,-10.5,41.9*,-7.4
COCC(=O)N(C)C[C@@H]1Oc2ncc(-c3ccccc3OC)cc2C(=O)N([C@H](C)CO)C[C@H]1C,-6.9,·,·,·,5.7,15.0
Cc1ccn2cc(CNS(=O)(=O)c3ccc4ccccc4c3)nc2c1,0.9,-0.1,-4.3,-6.9,16.5,-12.1
Cc1cccn2cc(CNS(=O)(=O)c3ccc4ccccc4c3)nc12,-16.9,-4.7,-3.5,-12.5,65.4*,-20.1
Nc1nc2ccc(Cl)cc2cc1C(=O)NCCc1ccc(Cl)cc1Cl,-0.3,-0.9,0.9,·,62.0*,·
CN(C)CCCNC(=O)C[C@H]1CC[C@H]2[C@@H](COc3ccc(NC(=O)CN(C)C)cc3C(=O)N2C)O1,·,·,·,·,2.4,·
CN1C(=O)c2cc(NC(=O)c3ccc(Cl)cc3)ccc2OC[C@H]2O[C@H](CC(=O)O)CC[C@@H]21,·,·,·,·,-4.9,·

# High-throughput results (PubChem)
